Read-outs that look alike come from different tables or passages of the source.
Columns and labels:
[1] = in vitro; cited from earlier work
[2] = system: 5xFAD mice; assay: BT2 daily ip injection for one month in 5xFAD mice; conditions: BT2 40 mg/kg ip daily, WT and 5xFAD mice
Description: These transgenic mice develop amyloid plaques and neuroinflammation at as early as 1.5-2 months of age^7, thus allowing the inventors to investigate the role of BCAAs in AD-related brain pathology when they are young. […] Next, the inventors examined amyloid and Tau pathology in the cortex.

[3] = injected ip in CD-1 mice; cited from earlier work

For `O=C(O)c1sc2cc(Cl)ccc2c1Cl` [BT2, 3,6-dichlorobenzo[b]thiophene-2-carboxylic acid], the Half-life [1] is listed as > 4 h, the Body weight [2] is listed as “not different” and the food intake [2] is listed as “not different”. For the same compound, the Half-life [3] was ~12 h.

— patent US20250025442A1, “BCAA-Lowering Compounds for Prevention and/or Treatment of Alzheimer's Disease and Related Disorders” (Texas Tech University System, priority 2020, published 2025)
